We go through 9 compounds from patent publication US7507717B2 (Xenome Ltd., priority 2002, dated 2009).

By UniProt entry, the sequences of proteins in these tests, tags left out.
UniProt P23975, whole entry: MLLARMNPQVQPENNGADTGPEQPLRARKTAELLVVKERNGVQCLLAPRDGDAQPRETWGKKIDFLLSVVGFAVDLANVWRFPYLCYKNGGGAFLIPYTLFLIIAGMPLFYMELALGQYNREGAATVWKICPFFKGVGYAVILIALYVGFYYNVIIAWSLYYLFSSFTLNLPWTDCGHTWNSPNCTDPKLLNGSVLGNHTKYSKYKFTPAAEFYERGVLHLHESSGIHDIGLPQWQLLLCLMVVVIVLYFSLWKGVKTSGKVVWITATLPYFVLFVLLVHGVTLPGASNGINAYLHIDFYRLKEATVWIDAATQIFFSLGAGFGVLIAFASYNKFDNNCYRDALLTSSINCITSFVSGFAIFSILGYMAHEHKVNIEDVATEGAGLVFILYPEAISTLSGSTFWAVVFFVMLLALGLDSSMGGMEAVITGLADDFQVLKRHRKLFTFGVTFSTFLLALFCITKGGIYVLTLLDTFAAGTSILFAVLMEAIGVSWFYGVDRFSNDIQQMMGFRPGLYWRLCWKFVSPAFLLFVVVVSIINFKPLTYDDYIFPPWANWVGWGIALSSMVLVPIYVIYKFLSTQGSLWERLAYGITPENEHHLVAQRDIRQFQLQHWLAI

For orientation: IC50 means the concentration needed to halve the response being measured.

This test has as its target T1, human noradrenaline transporter (hNET) (Homo sapiens, UniProt P23975).
T1 construct: expressed in transfected cells; host or cells: COS-7 cells (ATCC), transient transfection with metafectene
Kind of test: biochemical. The format is binding. The following applies: Av IC50 Displacement of 3H-nisoxetine from hNET.

`COc1ccc(C[C@@H]2NC(=O)CNC(=O)[C@@H]3CSSC[C@H](NC(=O)[C@H](CC(C)C)NC(=O)[C@H](CCCCN)NC2=O)C(=O)N[C@@H](CCCNC(=N)N)C(=O)N[C@@H](C)C(=O)N[C@H](C(N)=O)CSSC[C@H](NC(=O)[C@H](Cc2c[nH]c4ccccc24)NC(=O)[C@H](Cc2ccccc2)NC(=O)CNC(=O)CNC(=O)[C@@H](N)Cc2ccccc2)C(=O)N3)cc1` [compound 70] showed a concentration for half-maximal inhibition (IC50) of 224 nM.
With `CC(C)C[C@@H]1NC(=O)[C@H](CCCCN)NC(=O)[C@H](Cc2ccc(O)cc2)NC(=O)[C@@H](Cc2ccccc2)NC(=O)[C@@H]2CSSC[C@H](NC1=O)C(=O)N[C@@H](Cc1c[nH]cn1)C(=O)N1CCC[C@H]1C(=O)N[C@H](C(N)=O)CSSC[C@H](NC(=O)[C@@H](NC(=O)CNC(=O)[C@@H](N)CC(N)=O)C(C)C)C(=O)N2` [compound 192], the 50% inhibitory concentration (IC50) is 112000 nM. Compared with the last compound, the IC50 is about 500-fold higher.
The same measure for `COc1ccc(C[C@H](N)C(=O)N[C@@H](CC(N)=O)C(=O)NCC(=O)N[C@H](C(=O)N[C@H]2CSSC[C@@H](C(N)=O)NC(=O)[C@@H]3CCCN3C(=O)[C@H](Cc3c[nH]cn3)NC(=O)[C@@H]3CSSC[C@H](NC2=O)C(=O)NCC(=O)N[C@@H](Cc2ccc(O)cc2)C(=O)N[C@@H](CCCCN)C(=O)N[C@@H](CC(C)C)C(=O)N3)C(C)C)cc1` [compound 104]: 724 nM; for `COc1ccc(C[C@@H]2NC(=O)CNC(=O)[C@@H]3CSSC[C@H](NC(=O)[C@H](CC(C)C)NC(=O)[C@H](CCCCN)NC2=O)C(=O)N[C@@H](CCCNC(=N)N)C(=O)N2C[C@H](O)C[C@H]2C(=O)N[C@H](C(=O)N[C@@H](Cc2ccc(O)cc2)C(N)=O)CSSC[C@H](NC(=O)[C@H](CC(C)C)NC(=O)CNC(=O)[C@@H]2CCC(=O)N2)C(=O)N3)cc1` [compound 65]: 195 nM.
With `CC(C)C[C@H](NC(=O)CNC(=O)[C@H](CCCNC(=N)N)NC(=O)[C@@H](N)Cc1c[nH]c2ccccc12)C(=O)N[C@H]1CSSC[C@@H](C(N)=O)NC(=O)[C@@H]2C[C@@H](O)CN2C(=O)[C@H](Cc2c[nH]cn2)NC(=O)[C@@H]2CSSC[C@H](NC1=O)C(=O)NCC(=O)N[C@@H](Cc1ccc(O)cc1)C(=O)N[C@@H](CCCCN)C(=O)N[C@@H](CC(C)C)C(=O)N2` [compound 26] the figure was 50.1 nM.
`CC[C@H](C)[C@@H]1NC(=O)CNC(=O)[C@@H]2CSSC[C@H](NC(=O)[C@H](CC(C)C)NC(=O)[C@H](CCCCN)NC1=O)C(=O)N[C@@H](Cc1c[nH]cn1)C(=O)N1C[C@H](O)C[C@H]1C(=O)N[C@H](C(N)=O)CSSC[C@H](NC(=O)[C@@H](NC(=O)CNC(=O)[C@@H]1CCC(=O)N1)C(C)C)C(=O)N2` [compound 198] gave an IC50 of 214000 nM.
With `CC(C)C[C@@H]1NC(=O)[C@H](CCCCN)NC(=O)[C@H](Cc2ccc(O)cc2)NC(=O)CNC(=O)[C@@H]2CSSC[C@H](NC1=O)C(=O)N[C@@H](Cc1c[nH]cn1)C(=O)N1C[C@H](O)C[C@H]1C(=O)N[C@H](C(N)=O)CSSC[C@H](NC(=O)[C@@H](NC(=O)CNC(=O)[C@@H](N)CC(=O)O)C(C)C)C(=O)N2` [compound 147] the figure was 3160 nM; with `CC(C)C[C@@H]1NC(=O)[C@H](CCCCN)NC(=O)[C@H](Cc2ccc(O)cc2)NC(=O)CNC(=O)[C@@H]2CSSC[C@H](NC1=O)C(=O)N[C@@H](Cc1c[nH]cn1)C(=O)N1C[C@H](O)C[C@H]1C(=O)N[C@H](C(N)=O)CSSC[C@H](NC(=O)[C@@H](NC(=O)CNC(=O)[C@H](CC(N)=O)NC(=O)[C@H](C)NC(=O)[C@H](C)NC(=O)[C@@H](N)Cc1c[nH]c3ccccc13)C(C)C)C(=O)N2` [compound 100], 646 nM.
On to `COc1ccc(C[C@@H]2NC(=O)CNC(=O)[C@@H]3CSSC[C@H](NC(=O)[C@H](CC(C)C)NC(=O)[C@H](CCCCN)NC2=O)C(=O)N[C@@H](CCCNC(=N)N)C(=O)N[C@@H](Cc2ccc(O)cc2)C(=O)N[C@H](C(N)=O)CSSC[C@H](NC(=O)[C@H](CC(C)C)NC(=O)CNC(=O)[C@@H](N)Cc2c[nH]c4ccccc24)C(=O)N3)cc1` [compound 31], for which the IC50 was 87.1 nM.
